Assays:
[1] = molecular target: T1, Dihydrofolate reductase (Pneumocystis carinii, UniProt P16184)
T1 sequence (P16184 whole entry): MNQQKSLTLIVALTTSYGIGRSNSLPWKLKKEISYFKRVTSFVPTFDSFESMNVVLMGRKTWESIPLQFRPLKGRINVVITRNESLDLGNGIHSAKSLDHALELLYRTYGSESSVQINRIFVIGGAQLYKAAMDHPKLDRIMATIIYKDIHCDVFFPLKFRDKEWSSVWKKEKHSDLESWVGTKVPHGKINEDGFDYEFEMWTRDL

[2] = molecular target: T2, Bifunctional dihydrofolate reductase-thymidylate synthase (Toxoplasma gondii, UniProt Q07422)
T2 sequence (Q07422 whole entry): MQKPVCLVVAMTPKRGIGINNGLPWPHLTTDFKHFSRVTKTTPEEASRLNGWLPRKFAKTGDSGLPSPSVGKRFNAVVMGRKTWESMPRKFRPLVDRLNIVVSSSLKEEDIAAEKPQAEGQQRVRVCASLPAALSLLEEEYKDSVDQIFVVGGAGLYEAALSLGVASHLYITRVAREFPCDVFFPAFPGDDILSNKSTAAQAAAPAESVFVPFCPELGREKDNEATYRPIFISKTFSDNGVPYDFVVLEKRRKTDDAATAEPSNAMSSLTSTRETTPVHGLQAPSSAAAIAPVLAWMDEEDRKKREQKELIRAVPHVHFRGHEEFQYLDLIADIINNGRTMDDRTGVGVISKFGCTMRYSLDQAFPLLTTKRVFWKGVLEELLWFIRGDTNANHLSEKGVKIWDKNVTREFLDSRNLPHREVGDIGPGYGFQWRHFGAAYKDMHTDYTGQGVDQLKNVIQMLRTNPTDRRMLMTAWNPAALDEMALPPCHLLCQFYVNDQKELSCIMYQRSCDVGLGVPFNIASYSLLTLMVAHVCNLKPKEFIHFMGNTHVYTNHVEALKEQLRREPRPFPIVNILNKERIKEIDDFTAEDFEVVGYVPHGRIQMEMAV

COc1cc(NCc2cnc3nc(N)nc(N)c3c2C)cc(OC)c1OC
IC50 [1]: 42 nM
IC50 [2]: 10 nM
